Values quoted from earlier work, collected in US5807671A (priority 1995, dated 1998).

Test system: "atypical" BuChE
Details: cited from earlier work

Question: Which “IC50, higher for "atypical" than wild-type BuChE” value ("atypical" vs wild type) does the source give for `CCOP(=O)(OCC)SCC[N+](C)(C)C` here?
Answer: at least 10 fold

Question: What about the “Ki, higher for "atypical" than wild-type BuChE” value ("atypical" vs wild type) of the same compound?
Answer: at least 10 fold

Question: What about the “sensitivity of the atypical variant to inhibitors” value (in contrast to the normal enzyme) of the same compound?
Answer: much less sensitive
